From US7351686B2 (priority 2001, dated 2008)

System: transgenic mice overexpressing human mutant SOD1 (ALS mice)
Details: mouse, in vivo

## Nc1nc2ccc(OC(F)(F)F)cc2s1 [Riluzole, 2-amino-6-(trifluoromethoxy)benzothiazole]
  increase in survival over control: 9%
